Here are results for 72 molecules from PubChem BioAssay AID1700 (The Scripps Research Institute Molecular Screening Center, 2009).

This is a selection; strong and weak results do not stand in their true shares. Activity calls are given as the source filed them.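 The calls were made as follows: active = inhibition above a per-plate limit of that plate's mean compound inhibition plus 3 SD (cut at about 60% in these data); inactive = the rest.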

As a reminder, the inhibition is the relative decrease from the control value, in per cent.

This assay is described as follows: KLF5 expression inhibitors, primary screen, DLD-1 cells, luminescence (AID 1700).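 Also: 0% = DMSO wells and 100% = LY294002 at 200 µM; higher means less KLF5 promoter-driven luciferase light.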 Particulars: DLD-1 KLF5 promoter-luciferase reporter, at 5 µM, stronger effect = higher value. On the technique in general: A reporter such as luciferase makes a cellular process visible.
For the molecule `C(Cc1nn[nH]n1)Cc1nn[nH]n1`, the inhibition is inactive: -5.77%. The result for `Nc1ccc([As](=O)(O)c2ccc([N+](=O)[O-])cc2)cc1` reads inactive: 2.97%; that for `CN(C)C1(CNC(=O)c2ccc(Cl)c(S(N)(=O)=O)c2)CCCCC1`, inactive: -49.2%; that for `O=P(Nc1ccccn1)(c1ccc(Br)cc1)c1ccc(Br)cc1`, inactive: -16%. Regarding `O=P(Nc1nc2ccccc2s1)(c1ccccc1)c1ccccc1`, the inhibition was inactive: -2.02%.

On to `O=P1(Nc2ncccn2)COc2ccccc2OC1`, for which the inhibition was inactive: -27.1%. As to `Nc1cccc([As](=O)(O)c2ccccc2)c1`, the inhibition was inactive: -8.47%. On to `Cc1ccc(OCC(=O)OC2CN3CCC2CC3)cc1` (configuration not stated), for which the inhibition was inactive: -2.24%. The result for `O=[As](O)(c1cccs1)c1cccs1` reads inactive: -20.7%; that for `O=P1(Nc2ccc(Br)cn2)COc2ccccc2OC1`, inactive: -24.9%. The result for `Cc1ccc(C(=O)OC2CN3CCC2CC3)cc1` (configuration not stated) reads inactive: -32.8%; that for `CC1CCC(C(C)C)C(OP(=O)(Nc2ccccn2)c2ccccc2)C1` (configuration not stated), inactive: -17.3%; that for `Cc1nn(-c2ccccc2)c2c1P(=O)(N1CCOCC1)N(C)C(c1ccccc1)=N2` (configuration not stated), inactive: -21.4%.

`CN(C)C1(CNC(=O)c2ccc(S(C)(=O)=O)cc2)CCCCC1`: the inhibition is inactive: -9.44%. Turning to `O=C(/C=C/c1ccccc1)OC1CN2CCC1CC2` (configuration not stated), the inhibition was inactive: -30.3%. The result for `CN(C(=O)Cc1ccc(Cl)c(Cl)c1)[C@@H]1CCCC[C@H]1N1CCCC1` reads inactive: -32.6%; that for `CC(C)/C=N\N=C(\N)N[N+](=O)[O-]`, inactive: -4.26%.

On to `CC1(CBr)Cn2c(nc3ccccc3c2=O)S1` (configuration not stated), for which the inhibition was inactive: -22.7%. Turning to `O=[As](O)(c1ccccc1Br)c1ccccc1Br`, the inhibition was inactive: -27.6%. The result for `CCOP(=O)(NC(=NC(C)c1ccccc1)NC(C)c1ccccc1)OCC` (configuration not stated) reads inactive: -10.7%; that for `CCC1=CC2Cc3nc4ccc(Cl)cc4c(N)c3C(C1)C2` (configuration not stated), inactive: -9.21%; that for `O=P1(Nc2ccccn2)COc2ccccc2OC1`, inactive: -21.3%. Regarding `CCOP(=O)(Nc1ccc(C)cn1)OCC`, the inhibition is inactive: -20.4%. With `CC(C)(C)C(=O)NC(Sc1ncccn1)C(Cl)(Cl)Cl` (configuration not stated), the inhibition was inactive: -5.23%. The result for `Clc1n[nH]nc1-c1nn[nH][15n]1` reads inactive: 8.22%. The result for `Cc1ccc(NCCc2c([N+](=O)[O-])cc([N+](=O)[O-])cc2[N+](=O)[O-])cc1` reads inactive: -32.5%. As to `Nc1cccc2c([As](=O)(O)O)cccc12`, the inhibition is inactive: -7.85%. Take `CCCOP(=S)(Nc1nc(N)cc(=O)[nH]1)OCCC`: the inhibition is inactive: -33.2%. Take `CCOP(=O)(Nc1cccc2ccccc12)OCC`: the inhibition was inactive: 2.17%. For the molecule `COc1cc(C2NCCC3(OCCO3)C2(C)C)cc(OC)c1OC` (configuration not stated), the inhibition was inactive: -9.44%. The same measure for `O=C(OC1CN2CCC1CC2)c1ccc(Cl)cc1` (configuration not stated): inactive: -28.6%; for `CS(=O)(=O)c1ccc(Cl)c(NC(=O)COC(=O)C(O)(c2ccccc2)c2ccccc2)c1`: inactive: -10.9%; for `O=[As](O)(O)c1cccnc1`: inactive: -36%. As to `COc1cc(C(=O)NCC2(N3CCOCC3)CCCCC2)cc(Cl)c1OC(C)C`, the inhibition was inactive: -8.31%. As for `Cc1cccc(OCC(=O)OC2CN3CCC2CC3)c1` (configuration not stated), the inhibition was inactive: 11%.

On to `O=[As](O)(c1cccc(O)c1)c1cccc(O)c1`, for which the inhibition was inactive: -5.83%. Take `CCOP1(=S)c2c(C)nn(CCC#N)c2N=C(c2ccc(F)cc2)N1C` (configuration not stated): the inhibition is inactive: 4.95%. `O=[N+]([O-])c1ccc2c(c1)nnn2O`: the inhibition is inactive: -7.48%. Turning to `O=P(Nc1nccs1)(Oc1ccccc1)Oc1ccccc1`, the inhibition was inactive: -14.4%. Turning to `O=P(Nc1nccs1)(c1ccccc1)c1nc2ccccc2s1` (configuration not stated), the inhibition was inactive: -7.09%. On to `CCOP1(=S)c2c(C)nn(CCC#N)c2N=C(c2ccccc2F)N1C` (configuration not stated), for which the inhibition is inactive: -4.15%. On to `CS(=O)(=O)c1cc([N+](=O)[O-])c2no[n+]([O-])c2c1`, for which the inhibition was inactive: -5.51%. `O=C(O)COc1ccc([As](=O)(O)O)cc1[N+](=O)[O-]`: the inhibition was inactive: -38.5%.

For `Nc1ccccc1[As](=O)(O)c1ccccc1`, the inhibition was inactive: -26.2%. The result for `ClCCSc1nnc(-c2cccnc2)o1` reads inactive: -8.47%; that for `CC(C)c1ccc(OP(=O)(Nc2ccccn2)Oc2ccccc2F)cc1` (configuration not stated), inactive: -24%; that for `O=[N+]([O-])c1cc([N+](=O)[O-])c(-c2ccn[nH]2)s1`, inactive: -9.8%. Turning to `CC(C)NC(=O)NP(=O)(Oc1ccccc1)Oc1ccccc1`, the inhibition is inactive: 6.86%.

For the molecule `CCN(CC)C(=S)SC(NC=O)C(Cl)(Cl)Cl` (configuration not stated), the inhibition was inactive: -17.6%. Regarding `O=[As](O)(c1ccc(O)cc1)c1ccccc1O`, the inhibition was inactive: -10.8%. As for `C[As](=O)(O)c1cccc(C(=O)O)c1`, the inhibition is inactive: -24.4%. Turning to `Cc1ccc(OP(=O)(Nc2ccc([N+](=O)[O-])cn2)Oc2ccc(C)cc2)cc1`, the inhibition was inactive: -20.5%. For the molecule `Cc1ccc2nc3c(c(C)c2c1)CC(C(Cl)Cl)S3` (configuration not stated), the inhibition is inactive: -47.5%. The result for `COc1ccc(N/C(=N/P(=O)(N2CCOCC2)N2CCOCC2)N2CCOCC2)cc1` reads inactive: -31.8%; that for `Cc1c2c(nc3ccccc13)SC(C(Cl)Cl)C2` (configuration not stated), inactive: -3.41%; that for `Cc1cc(=O)[nH]c(N[N+](=O)[O-])n1`, inactive: -21.6%. For `O=C(OC1CN2CCC1CC2)C12CC3CC(CC(C3)C1)C2` (configuration not stated), the inhibition is inactive: 1.91%. The result for `COc1cc(I)ccc1[As](=O)(O)O` reads inactive: -9.82%; that for `COc1ccc2nc(NP(=O)(c3ccccc3)c3ccccc3)sc2c1`, inactive: -31%; that for `O=C(OC1CN2CCC1CC2)c1cccc([N+](=O)[O-])c1` (configuration not stated), inactive: -12.2%. `CCOC(=O)c1ccc(NC(=O)C(C)(CCl)SC)cc1` (configuration not stated): the inhibition was inactive: -55.8%. On to `CCC(C)N(CC(C)C)C(=S)SC(NC(C)=O)C(Cl)(Cl)Cl` (configuration not stated), for which the inhibition was inactive: 0.47%.

For `COP1(=S)c2c(C)nn(CCC#N)c2N=C(c2ccc(F)cc2)N1C` (configuration not stated), the inhibition is inactive: 8.11%. As for `O=C(Nc1ccncc1[N+](=O)[O-])c1ccc([N+](=O)[O-])cc1[N+](=O)[O-]`, the inhibition was inactive: -37.6%. On to `O=C(COc1ccccc1)OC1CN2CCC1CC2` (configuration not stated), for which the inhibition is inactive: 6.62%. `CCOC(=O)Nc1cccc([As](=O)(O)O)c1`: the inhibition is inactive: -0.44%. On to `Cc1cc(SC(NC=O)C(Cl)(Cl)Cl)ncn1` (configuration not stated), for which the inhibition is inactive: -24.9%.

Turning to `O=P(Nc1ccccn1)(c1cccc2ccccc12)c1cccc2ccccc12`, the inhibition is inactive: -17.6%. The result for `O=[N+]([O-])c1ccc(Nc2ccc(Oc3ccc([N+](=O)[O-])cc3[N+](=O)[O-])cc2)c([N+](=O)[O-])c1` reads inactive: -20.8%; that for `CCOC(=O)Nc1ccc([As](=O)(O)O)c(O)c1`, inactive: -31.8%. Regarding `Cc1cc(SC(NC(=O)c2ccccc2)C(Cl)(Cl)Cl)nc(C(C)C)n1` (configuration not stated), the inhibition was inactive: -27.5%.

For `CCCCOc1ccc(C(=O)NCC2(N3CCCCC3)CCCCC2)cc1OC`, the inhibition is inactive: -7.33%.
